Target: Type-1 angiotensin II receptor (Rattus norvegicus) (UniProt P25095)
Experiment: The compound was tested for inhibition of angiotensin II receptor induced pressor response in rat after intravenous administration.

## CCc1nc2c(C)cc(C)nc2n1Cc1ccc(-c2ccccc2-c2nn[nH]n2)cc1 [L-158809]
  ED50: 0.048 mg/kg
